Experimental data: article PMC7002685, “Inhibition of vascular calcification by inositol phosphates derivatized with ethylene glycol oligomers” (Nature Communications, 2020)

Legend:
vascular calcification [1] = experiment: Vitamin D3 (s.c.) + high-phosphate diet rat model of VC; format: in vivo
Description: Male Sprague-Dawley rats were housed two per cage with free access to water and standard chow and submitted to a 12-h light/dark cycle. Compounds were administered and doses calculated using the salt form. […] Sham groups were injected with 0.9% NaCl instead of vitamin D3. […] Blood samples of 500 µL were collected on day 8 by fine needle from the tail vein and at sacrifice on day 12. […] Serum creatinine, calcium, and phosphorus were measured using standard colorimetric biochemistry analysis (Cobas Mira). Calcium tissue content was measured from dried carotids, whole left kidneys, and abdominal aortas by ICP-MS analysis. […] Images of the rat aortic trees were acquired on a Canon 5D MARKIII (Canon, Tokio, Japan) equipped with a 50 mm lens.
Calcium tissues’ contents were measured at the Central Environmental Laboratory (EPFL, Lausanne, Switzerland). Dry tissues (90 °C, overnight) were weighed and digested by aqua regia overnight at RT, followed by 2 h reflux, after which the solvent was completely evaporated with a steady flow of nitrogen gas. The dried samples were then reconstituted and homogenized with nitric acid. Calcium standards and samples were diluted with nitric acid. Absorbance was recorded using ICP-OES (Shimadzu ICPE-9000, Shimadzu). Two technical replicates were measured for each sample. […] Tissue concentrations of calcium were expressed as mg/g of dry tissue.

vascular calcification [2] = experiment: Vitamin D3 (oral) + warfarin diet rat model of VC

## COCCOCCO[C@@H]1[C@@H](OP(=O)(O)O)[C@H](OCCOCCOC)[C@@H](OP(=O)(O)O)[C@@H](OP(=O)(O)O)[C@H]1OP(=O)(O)O [(OEG2)2-IP4, 4,6-Di-O-(methoxy-diethyleneglycol)-myo-inositol-1,2,3,5-tetrakis(phosphate)]
Vascular calcification [1]; 30 mg/kg s.c. twice daily
  decrease in abdominal aorta calcification: not significant
Vascular calcification [1]; 30 mg/kg s.c. twice daily for 11 days
  carotid VC (calcium by ICP-MS): significantly decreased formation of carotid VC
Vascular calcification [2]; 50 mg/kg
  Serum levels of ionized calcium on day 7: 1700 ± 130 µM
Vascular calcification [2]; all dose groups
  calcification in the heart and the left kidney: no differences between treatment groups were observed
